# The list shows a part of the results, in another mix than the full data. Active and inactive are the calls of the source. Rule as the data show it: active = inhibition above about 22% (passing the limit was not always enough); inactive = the rest.
# Amino acid sequences for entries named in this document (tags omitted).
# UniProt P35372, whole entry, looked up: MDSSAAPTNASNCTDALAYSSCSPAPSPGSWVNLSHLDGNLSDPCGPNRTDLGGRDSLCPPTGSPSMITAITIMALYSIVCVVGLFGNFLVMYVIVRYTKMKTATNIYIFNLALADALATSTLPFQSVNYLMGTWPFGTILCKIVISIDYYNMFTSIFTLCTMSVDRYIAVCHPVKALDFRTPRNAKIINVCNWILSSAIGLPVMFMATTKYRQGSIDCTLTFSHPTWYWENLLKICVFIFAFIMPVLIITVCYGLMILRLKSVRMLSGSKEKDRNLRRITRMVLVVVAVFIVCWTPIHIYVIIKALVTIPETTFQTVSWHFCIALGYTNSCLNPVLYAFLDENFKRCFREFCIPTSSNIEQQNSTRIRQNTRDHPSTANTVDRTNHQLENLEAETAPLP
# UniProt P41143, whole entry, looked up: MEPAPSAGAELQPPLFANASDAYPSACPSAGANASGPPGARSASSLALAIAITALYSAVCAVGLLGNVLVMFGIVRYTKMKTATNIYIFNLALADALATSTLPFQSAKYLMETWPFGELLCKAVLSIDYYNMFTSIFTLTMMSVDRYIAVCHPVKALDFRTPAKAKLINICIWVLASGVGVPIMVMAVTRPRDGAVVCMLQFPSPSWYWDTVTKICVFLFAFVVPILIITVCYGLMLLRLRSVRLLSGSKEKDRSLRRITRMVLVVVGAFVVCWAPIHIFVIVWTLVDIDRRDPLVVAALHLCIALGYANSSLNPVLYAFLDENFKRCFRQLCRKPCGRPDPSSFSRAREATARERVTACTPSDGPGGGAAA
# Target: Mu-type opioid receptor (Homo sapiens) + Delta-type opioid receptor (Homo sapiens) (UniProt P35372+P41143)
# Test: inverse agonists of MOR-DOR heterodimerization, primary screen, cell-based, luminescence (AID 504357);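 also: 0% = cells with DMSO and 100% = wells without cells with DMSO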
# Conditions: cell-based MOR-DOR heterodimer luminescence, inverse agonism; at 9.3 µM; stronger effect = higher value
row,SMILES,inhibition
1,CCC(=O)Nc1ccc2c(c1)nc1n2CCN(CCOC)C1,inactive: 2.91%
2,O=C(c1cccc(Cl)c1)N1CCn2c1nc1ccccc12,inactive: 18.5%
3,C=CCOC(=O)C1=C(C)N=C2SCCC(=O)N2C1/C=C/c1ccccc1OC (stereo not given),inactive: 4.16%
4,CCCCNc1nc2ccccc2n1CC(=O)N1CCc2ccccc2C1,inactive: 11.2%
5,O=C(Cn1c(-c2cscn2)nc2ccccc21)Nc1ccc(Cl)cc1,inactive: 3.78%
6,CC1CCCC(C)N1C(=O)Cn1c(SCC(=O)NCc2ccc3c(c2)OCO3)nc2ccccc21 (stereo not given),inactive: -2.86%
7,S=C=Nc1cccc(C2(N3CCCCC3)CCCCC2)c1,inactive: -7.64%
8,CCOc1ccc(C(O)Cn2c(=N)n(CCN3CCCCC3)c3ccccc32)cc1 (stereo not given),inactive: 12%
9,Cn1c(=O)c2ncn(CC(=O)NCCC3=CCCCC3)c2n(C)c1=O,inactive: 1.58%
10,CCN(CC)CCn1c(/N=C/c2cc(Br)ccc2O)nc2ccccc21,inactive: 5.8%
11,Cn1c(=O)c2c(ncn2CC(=O)N2CCN(S(=O)(=O)c3ccc(F)cc3)CC2)n(C)c1=O,inactive: 10.3%
12,CCCn1c(=O)[nH]c(=O)c2c1nc(-c1ccccc1)n2CCN1CCOCC1,inactive: 9.17%
13,CCCCC(=O)N/N=C(C)/C=C/c1ccccc1F,inactive: -16.8%
14,Cn1c(=O)c2c(ncn2CC(=O)Nc2cc(S(=O)(=O)N3CCCCC3)ccc2O)n(C)c1=O,inactive: 16.2%
15,CC(C)[C@H](NC(=O)N1CCn2c1nc1ccccc12)C(=O)NCC1CCCO1 (stereo not given in full),inactive: 9.4%
16,Cc1ccc(-c2csc(N3CCN(c4cc5c(cc4Cl)nc(-c4ccncc4)n5CCN4CCCCC4)CC3)n2)cc1,inactive: 3.58%
17,O=C(NC(Sc1ccncn1)C(Cl)(Cl)Cl)c1ccccc1 (stereo not given),inactive: 10.4%
18,O=C(Cn1c(CO)nc2ccccc21)NCCc1ccc(F)cc1,inactive: 5.26%
19,Nc1ncnc2c1ncn2CCN1CCCCC1,inactive: 8.94%
20,CCN(C(=O)Cn1cnc2c1c(=O)n(C)c(=O)n2C)C1CCS(=O)(=O)C1 (stereo not given),inactive: 12.1%
21,CCN(C(=O)Cn1cnc2c1c(=O)n(C)c(=O)n2C)C1CCCCC1,inactive: 13.8%
22,COCCN1CCn2c(nc3cc([N+](=O)[O-])ccc32)C1,inactive: -0.32%
23,Oc1ccccc1CNc1ccccn1,inactive: -7.4%

row,SMILES,inhibition
1,CCC(=O)N1c2ccc(S(=O)(=O)CCC(=O)N3CCn4c3nc3ccccc34)cc2CC1C (stereo not given),inactive: -6.16%
2,O=C(Cn1cnc2c(NCc3ccccc3)ncnc21)NCCN1CCOCC1,inactive: 12.8%
3,Nc1cc(N)c2nonc2c1[N+](=O)[O-],inactive: -9.31%
4,O=C(Nc1nc2ccccc2n1CCN1CCOCC1)c1ccc(Cl)cc1,inactive: -2.09%
5,N=c1n(CCOc2ccccc2)c2ccccc2n1CCN1CCOCC1,inactive: 15.6%
6,CC(C)CC(=O)NC(Sc1ccc(Cl)cc1)C(Cl)(Cl)Cl (stereo not given),inactive: -19.9%
7,CSCC[C@H](NC(=O)N1CCn2c1nc1ccccc12)C(=O)NCc1ccc(C)cc1,inactive: -2.53%
8,CN(C)CCn1c(COc2ccccc2)nc2ccccc21,inactive: 11.3%
9,Cc1ccccc1C(=O)Nc1cccc(NC(=O)Cn2cnc3c(=O)n(C)c(=O)n(C)c32)c1,inactive: 4.93%
10,CCc1cccc(CC)c1NC(=O)Cn1c(-c2ccccc2Cl)nc2ccccc21,inactive: -3.09%
11,COCCCNC(=O)CC1C(=O)N(Cc2ccccc2)C(C)c2nc3ccccc3n21 (stereo not given),inactive: 15.3%
12,O=C(Cn1cnc2c(OCc3ccccc3)ncnc21)NCCN1CCOCC1,inactive: 18.4%
13,CCCCCCNCCn1cnc2c(N)ncnc21,inactive: 8.89%
14,Cc1ccc2c(c1)C1CN(C)CCC1N2C(=S)Nc1ccc(Cl)cc1Cl (stereo not given),inactive: 7.83%
15,CSc1nc(N)nc2c1ncn2CC(=O)NCCCN1CCCC1=O,inactive: 17.4%
16,Cn1c(=O)c2c(nc(NCc3ccccc3)n2CC(N)=O)n(C)c1=O,inactive: 11.2%
17,COc1ccc(CNC(=O)CCNC(=O)N2CCn3c2nc2ccccc23)cc1,inactive: 13.6%
18,Cc1cc2ncn(C3CC(=O)N(C)C3=O)c2cc1C (stereo not given),inactive: 12.5%
19,O=P1(N(CCCl)CCCl)OCCCN1CCCl (stereo not given),inactive: 7.43%
20,O=P1(N(CCCl)CCCl)Nc2ccccc2N1,inactive: 12.1%
21,C=CCSc1nnc(NC(=O)Cn2cnc3c2c(=O)n(C)c(=O)n3C)s1,inactive: -1.78%
22,c1ccc(CN2CCC(Nc3nc(-c4ccccc4)nc4ccccc34)CC2)cc1,inactive: -34.5%

# Source: PubChem BioAssay AID504357 (The Scripps Research Institute Molecular Screening Center, 2011)
